Assay: Dehydration behaviour of activators by Difference Scanning Calorimetry (DSC)
Assay type: physicochemical
Settings: FIG. 14a-c
Source text: The dehydration behaviour of these substances was examined in three example substances by Difference Scanning Calorimetry (DSC). This thermal analysis provides information on the stages of dehydration taking place under energy absorption, and on the respective typical temperature.

sodium trisilicate [Na2Si3O7.xH2O]
dehydration temperature: 101.2 °C

Reference: patent US7175853B1, “Therapeutic system which can be moisture-activated” (LTS Lohmann Therapie-Systeme AG, priority 1998, dated 2007)
